# scFv variants of Ab-95 (light chain) against a SARS-CoV-2 spike peptide

The measurements come from Engelhart et al. 2022 (doi:10.1038/s41597-022-01779-4) through the FLAb antibody collection.

Target: peptide PDVDLGDISGINAS, taken from heptad repeat 2 (HR2) of SARS-CoV-2 spike.

Parent scFv Ab-95: VH joined to VL by three GGGGS repeats. Changes lie in the light chain CDRs alone.
VH: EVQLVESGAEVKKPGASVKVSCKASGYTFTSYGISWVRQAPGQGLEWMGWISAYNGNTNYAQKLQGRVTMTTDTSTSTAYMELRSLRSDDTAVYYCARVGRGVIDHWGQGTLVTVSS
VL: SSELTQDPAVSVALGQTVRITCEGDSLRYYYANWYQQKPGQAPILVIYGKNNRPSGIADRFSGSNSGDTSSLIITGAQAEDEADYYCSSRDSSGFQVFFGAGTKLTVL

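The parent was found by panning a naive human phage display library on the peptide. Library AAYL52 holds single substitutions and randomly drawn double and triple substitutions in the CDRs. AlphaSeq pools MATa yeast showing the antibodies with MATalpha yeast showing the peptide. The frequency of each diploid, read from paired DNA barcodes, reflects how well the two displayed proteins bind. Scores were corrected for input abundance and mapped to Kd with protein pairs of known affinity run in the same pool. Each pool was mated in three replicate cultures.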

Positions count from residue 1 of the parent VL; P54L puts L in place of P.
Every variant below is changed at P54 of the VL (sequential numbering).
Numbers give log10(Kd / nM), so 0 is 1 nM and 3 is 1 µM. Smaller is tighter.
The mean shown is taken over the replicates in which the pair was detected.
Where no diploid with the target was found in that replicate, the entry reads "nd": below detection, most likely a poor binder, though not proof of it.
Parent in this assay: reference entry 2.31, copy in this library 2.25.
As a blank, each scFv also met three strains without target: over library AAYL52, 28% of these pairings were detected, typically at 3.91 and seldom below 2.90.

With P54L the result was 2.61, 2.91, 3.17 (mean 2.90). With P54N/S55W the result was 2.74, nd, 3.62 (mean 3.18). For P54Q/R90V/V97W, the assay gave 4.73, nd, nd. Variant N51W/P54A/F98G showed 5.11, 3.84, 3.95 (mean 4.30). For G24T/P54D/F98L, the assay gave 3.27, nd, 3.95 (mean 3.61). With D25A/P54A/S55V the result was 2.00, 2.17, 1.76 (mean 1.98).

For Y31W/P54N/S93A, the assay gave nd, nd, nd. For K50C/P54C, the assay gave 5.36, nd, 4.48 (mean 4.92). For S26A/K50H/P54S, the assay gave 2.54, 2.63, 1.91 (mean 2.36). With E23M/P54G/S89D the result was 3.37, 5.92, nd (mean 4.64). Variant R53D/P54H/S93R gave 3.49, nd, 4.56 (mean 4.02). Variant R28W/P54H/S92G gave nd, 5.56, nd.

For R28P/P54S/D91T, the assay gave 3.67, 2.98, 3.51 (mean 3.39). With A32Q/P54E/G94K the result was 5.62, nd, nd. Variant P54T/S88M/Q96G showed nd, 3.39, nd. Variant A32D/P54L/Q96G gave 3.32, 3.03, nd (mean 3.17). Variant G49H/K50W/P54L showed nd, 4.13, 3.83 (mean 3.98). With N51K/P54Q/R90D the result was nd, nd, nd.

Variant E23N/P54I/D91W showed 3.50, 3.91, 3.05 (mean 3.49). Variant R28N/P54D/R90D gave 2.41, 3.38, 3.32 (mean 3.04). With S26I/R53Y/P54A the result was 4.05, 3.82, 3.68 (mean 3.85). Variant A32E/P54H gave nd, nd, nd. For R53E/P54M, the assay gave 4.48, 3.34, 2.91 (mean 3.58). With K50P/P54H/Q96K the result was 3.92, 4.88, 2.45 (mean 3.75).

Variant Y31T/P54A showed 1.73, 1.63, 2.01 (mean 1.79). For P54L/S88T, the assay gave 3.70, nd, 3.19 (mean 3.45). Variant G24S/P54S showed 3.29, 3.84, 3.83 (mean 3.65). With P54F/S89T/F98G the result was 4.28, 4.41, nd (mean 4.34). For N33P/K50W/P54S, the assay gave 5.23, nd, nd. Variant Y30N/P54N/S55G showed 0.84, 0.76, 0.07 (mean 0.55).

For K50L/N51T/P54I, the assay gave nd, 5.31, 4.06 (mean 4.68). For N51L/P54I/S88F, the assay gave nd, 5.00, nd. Variant P54S/F98L gave 3.02, 2.51, 4.16 (mean 3.23). Variant G49T/P54M/D91P showed 5.26, nd, 3.54 (mean 4.40). Variant L27I/P54L/S55Q showed 1.63, 1.57, 1.69 (mean 1.63).

Picked from the list: the 3 lowest averages where every replicate gave a value.

Y30N/P54N/S55G: 0.84, 0.76, 0.07 (mean 0.55).
L27I/P54L/S55Q: 1.63, 1.57, 1.69 (mean 1.63).
Y31T/P54A: 1.73, 1.63, 2.01 (mean 1.79).